The target of the experiment is Microphthalmia-associated transcription factor (Homo sapiens) (UniProt O75030). As to the kind of experiment: MITF inhibitors, potency by titration, dose response, biochemical, AlphaScreen, human (AID 1259371). As to conditions: AlphaScreen biochemical MITF assay, signal inhibition. (In Alpha technology, singlet oxygen from a donor bead excites a nearby acceptor bead.)

Protein sequences, listed by entry. Tags and fused reporters are not part of them.
UniProt O75030, whole entry: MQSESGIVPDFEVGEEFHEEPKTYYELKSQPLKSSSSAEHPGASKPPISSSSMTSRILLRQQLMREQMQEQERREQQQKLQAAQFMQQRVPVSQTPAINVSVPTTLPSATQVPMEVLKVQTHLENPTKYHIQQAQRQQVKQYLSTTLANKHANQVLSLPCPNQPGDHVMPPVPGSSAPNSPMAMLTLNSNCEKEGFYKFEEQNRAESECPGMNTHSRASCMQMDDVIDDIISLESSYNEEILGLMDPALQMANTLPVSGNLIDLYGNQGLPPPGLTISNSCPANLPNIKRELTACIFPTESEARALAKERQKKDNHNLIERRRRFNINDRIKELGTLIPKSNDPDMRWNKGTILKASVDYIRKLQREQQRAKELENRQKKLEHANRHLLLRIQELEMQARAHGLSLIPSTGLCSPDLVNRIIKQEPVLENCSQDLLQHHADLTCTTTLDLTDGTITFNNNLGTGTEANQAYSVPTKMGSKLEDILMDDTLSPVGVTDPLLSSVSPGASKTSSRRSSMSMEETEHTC

pIC50: −log10 of the molar value.

The source of these data is PubChem BioAssay AID1259371 (The Scripps Research Institute Molecular Screening Center, 2018).

For the molecule `O=[N+]([O-])c1cc2[nH]c3cc([N+](=O)[O-])c([N+](=O)[O-])cc3c2cc1[N+](=O)[O-]`, the pIC50 is 6.33.

In general, pIC50 refers to the negative decadic logarithm of the IC50, by convention in mol/L.
